{"source": "patent US11266655B2", "about": "“Methods and compositions for treating urea cycle disorders” (Camp4 Therapeutics Corporation, priority 2019, dated 2022)", "type_in_all_cases": "cell-based", "key": {"CPS1": {"test_system": "CPS1", "experiment": "RNA-seq of compound-treated primary human hepatocytes, CPS1 expression"}, "ARG1": {"test_system": "ARG1", "experiment": "RNA-seq of compound-treated primary human hepatocytes, ARG1 expression", "conditions": "RNA-seq (Table 7)"}, "SLC25A15": {"test_system": "SLC25A15", "experiment": "RNA-seq of compound-treated primary human hepatocytes, SLC25A15 expression", "conditions": "RNA-seq (Table 8)"}, "urea cycle genes": {"test_system": "urea cycle genes", "experiment": "RNA-seq of primary human hepatocytes, compounds that modulate multiple urea cycle-related genes"}}}
{"substance": "GZD824 Dimesylate", "values": [{"measurement": "CPS1 expression, Fold change (Log 2) vs untreated", "setting": "CPS1", "value": 3.39, "unit": "Log 2"}, {"measurement": "Fold change (Log 2) vs untreated, ARG1 expression", "setting": "ARG1", "value": 1.06, "unit": "Log 2"}, {"measurement": "Fold change (Log 2) vs untreated, SLC25A15 expression", "setting": "SLC25A15", "value": 0.73, "unit": "Log 2"}, {"measurement": "number of urea cycle genes whose expression was significantly up-regulated", "setting": "urea cycle genes", "value": "three"}, {"measurement": "Up-regulated Genes", "setting": "urea cycle genes; urea cycle-related genes significantly increased (Table 10)", "value": "CPS1, ARG1, SLC25A15"}]}
